Experimental findings from patent publication US20230390283A1, “USES OF CHK2 INHIBITORS” (The University of Birmingham, priority 2020, published 2023) are described below.

Molecules are shown by their SMILES. Several values for one entry are separate records, joined by “and”; a condition that tells them apart may be missing. Equal entries are not always repeated.

The subject of assay [1] is T8 dorsal column (DC) crush model of spinal cord injury. Briefly: DC crush injury model: tape sensing and removal test (sensory function). It is filed as in vivo, rat. The procedure:
(§1) DC crush injury model. Rats were injected subcutaneously with 0.05 ml Buprenorphine to provide analgesia prior to surgery and anaesthetised using 5% of Isoflurane in 1.8 ml/l of O2 with body temperature and heart rate monitored throughout surgery.
(§2) Chk2 inhibition studies in the DC crush injury model. […] Chk1i (LY2603618) was used at equimolar concentrations for each experiment. Rats were killed in a rising concentration of CO2 at either 28 d for immunohistochemistry and western blot analyses or 6 weeks for electrophysiology and functional tests.
Functional tests. […] Experiments were performed by 2 observers (treatment conditions were masked) in the same order, the same time of day and each test performed for 3 individual trials.

The subject of a further assay is pChk2. The settings on record: DC injury, dosing every 24 hrs, pilot dose finding 1-10 μg. The procedure:
as §1, §2
Sham treated animals (partial laminectomy but no DC injury) were also included as additional controls. At 4 weeks after DC injury and treatment, ipsilateral L4/L5 DRG pairs were harvested, total RNA extracted using Trizol reagent as described above and knock down of Chk1 and Chk2 mRNA knockdown using quantitative qRT-PCR, as described above. Contralateral L4/L5 DRG pairs were treated the same as above and used as controls. […] This included western blot to determine pChk1 and pChk2 levels after shChk2 treatment. […]
(§3) Protein extraction and western blot analysis. […] For densitometry, western blots were scanned into Adobe Photoshop (Adobe Systems Inc, San Jose, Calif., USA) and analysed using the built-in-macros for gel analysis in ImageJ (NIH, USA, http://imagej.nih.clov/ij).

Assay [2] deals with T8 dorsal column (DC) crush model of spinal cord injury. Briefly: DC crush injury model: electrophysiology (compound action potentials). The settings on record: 6 weeks after DC injury; for negative CAP amplitudes: different stimulation intensities. In kind it is in vivo, rat. The procedure: as §1, §2
Electrophysiology. […] Briefly, with the experimenter masked to the treatment conditions, silver wire electrodes applied single-current pulses (0.05 ms) through a stimulus isolation unit in increments (0.2, 0.3, 0.6, 0.8, and 1.2 mA) at L1-L2 and compound action potentials (CAP) were recorded at C4-C5 along the surface of the midline spinal cord. Spike 2 software was then used to calculate CAP amplitudes between the negative deflection after the stimulus artifact and the next peak of the wave. CAP area was calculated by rectifying the negative CAP component (full-wave rectification) and measuring its area. At the different stimulation intensities. […] Representative CAP traces are processed output data from Spike 2 software.

Assay [3] relates to RGC. Briefly: Optic neuritis model: RGC survival (Fluorgold backfilled wholemounts). In kind it is in vivo, mice. The settings on record: 21 days after induction. The procedure: (§4) Induction of optic neuritis. […] Animals were intraperitoneally injected with 150 ng Bordetella pertussis toxin on day 0 and 2. Animals were monitored daily and assessed for the development of EAE. At the end of the experiment, animals were then killed by CO2 overdose.
(§5) Assessment of RGC survival.

For assay [4], the system named is RGC. Briefly: Glaucoma model: RGC survival in retinal wholemounts. In kind it is in vivo, rat. The settings on record: 30 days after induction of glaucoma. The procedure: Induction of glaucoma. […] At day zero, a self-sealing incision was made though the cornea into the anterior chamber enabling twice weekly intracameral injections of 3.5 μl of TGFβ2 (5 ng/μl) using glass micropipettes for 30 days. Vehicle, comprising saline, was injected in control groups. Intraocular pressure was measured using an iCare Tonolab rebound tonometer (Icare, Helsinki, Finland).
as §5

Assay [5] relates to retinal nerve fibre layer. Nature of the assay: Optic neuritis model: RNFL thickness by OCT. In kind it is in vivo, mice. The settings on record: day 21. The procedure:
as §4
Measurement of RNFL thinning using optical coherence tomography (OCT). […] Examinations were recorded in both right (oculus dextrus, OD) and left eyes (oculus sinister, OS) of each animal at day 0 and day 21 after immunisation. […] A RNFL single exam using the automatic real time (ART) mode (allows averaging of 100 recordings) was produced for each mouse eye, which automatically measured RNFL thickness (μm) in a 30° circle surrounding the optic nerve head.

The next assay has as its system pChk2^T68 and pChk2^T383. The settings on record: western blot and densitometry. The procedure:
Rat DRGN and retinal cultures. […] Cells were cultured for 4 days in a humidified chamber at 37° C. and 5% CO2 before being subjected to quantitative RT-PCR or immunocytochemistry, as described below.
as §3
In general terms: A western blot detects proteins with antibodies after separation by electrophoresis.

With `COc1cccc(OCCCN)c1-c1cc(Nc2cnc(C#N)cn2)n[nH]1` [Prexasertib], the “time after treatment at which mean tape sensing/removal times are restored to normal” value in assay [1] is recorded as 3 weeks. The “amount required to optimally reduce pChk2 levels by intrathecal delivery” value in the assay on pChk2 worked out at 3 μg. In assay [2], the “CAP area at different stimulation intensities” value is “improved significantly” and the “negative CAP amplitudes” value is “restored”. Moreover, the “RGC survival in optic neuritis” value in the assay on RGC [3] is “protected from death”. Further, the “RGC survival in glaucoma” value in the assay with RGC [4] is “protect against RGC death”. Moreover, the “RNFL thickness in optic neuritis” value in assay [5] is given as “preserved”.
As to `COc1cc2nc(-c3cc(F)ccc3O)nc(N[C@@H]3CNC[C@H]3C(C)(C)O)c2cc1OC` [CCT241533], the “Chk2 phosphorylation (pChk2^T68, pChk2^T383) in DRGN cultures” value with pChk2^T68 and pChk2^T383 is “suppressed Chk2 phosphorylation”.
On to `NC(=O)c1ccc2[nH]c(-c3ccc(Oc4ccc(Cl)cc4)cc3)nc2c1` [BML-277], for which the “time after treatment at which mean tape sensing/removal times are restored to normal” value in assay [1] came out at 4 weeks. Also, in the assay on pChk2, the “amount required to optimally reduce pChk2 levels by intrathecal delivery” value is 3 μg and 5 μg. Moreover, in assay [2], the “CAP area at different stimulation intensities” value is given as “improved significantly” and the “negative CAP amplitudes” value is “restored”. For the same compound, the “RGC survival in optic neuritis” value in the assay with RGC [3] is given as “protected from death”. Also, the “RGC survival in glaucoma” value in the assay with RGC [4] is listed as “protect against RGC death”. For the same compound, the “RNFL thickness in optic neuritis” value in assay [5] was “preserved”.
